Assay results reported in publication doi:10.1101/2022.05.31.494188.

Experiments:
Assay in all cases: SPR
Settings in all cases: Fc fusion
[1] = molecular target: human FcγRI (hFcγRI), recombinant (human) (UniProt P12314)
[2] = molecular target: mouse FcγRIV (mFcγRIV), recombinant (mouse)
[3] = molecular target: human FcγRIIIa (hFcγRIIIa), recombinant (human) (UniProt P08637)

Substance | pKd [1] | pKd [2] | pKd [3]
Avaren-Fc produced in glycoengineered ΔXylT/ΔFucT N. benthamiana (AvFc^ΔXF) | 8.39 | 6.34 | –
Avaren-Fc produced in wild-type N. benthamiana (AvFc^WT) | 8.11 | 5.60 | 6.42

pKd: −log10 of the molar value.
